Measurements taken from patent US9024044B2, “Heteroarylcarboxylic acid ester derivative” (Ajinomoto Co., Inc., priority 2012, dated 2015).

Protein sequences, listed by entry. Tags and fused reporters are not part of them. Residues count along the entry.
UniProt P07477, 24-247 limits assumed: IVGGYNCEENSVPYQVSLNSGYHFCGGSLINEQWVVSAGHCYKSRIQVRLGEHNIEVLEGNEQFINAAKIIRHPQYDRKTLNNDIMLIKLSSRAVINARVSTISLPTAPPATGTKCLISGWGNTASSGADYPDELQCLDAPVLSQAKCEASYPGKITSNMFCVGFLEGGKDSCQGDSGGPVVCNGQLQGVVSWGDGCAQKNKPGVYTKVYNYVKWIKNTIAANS
UniProt P98073, whole entry: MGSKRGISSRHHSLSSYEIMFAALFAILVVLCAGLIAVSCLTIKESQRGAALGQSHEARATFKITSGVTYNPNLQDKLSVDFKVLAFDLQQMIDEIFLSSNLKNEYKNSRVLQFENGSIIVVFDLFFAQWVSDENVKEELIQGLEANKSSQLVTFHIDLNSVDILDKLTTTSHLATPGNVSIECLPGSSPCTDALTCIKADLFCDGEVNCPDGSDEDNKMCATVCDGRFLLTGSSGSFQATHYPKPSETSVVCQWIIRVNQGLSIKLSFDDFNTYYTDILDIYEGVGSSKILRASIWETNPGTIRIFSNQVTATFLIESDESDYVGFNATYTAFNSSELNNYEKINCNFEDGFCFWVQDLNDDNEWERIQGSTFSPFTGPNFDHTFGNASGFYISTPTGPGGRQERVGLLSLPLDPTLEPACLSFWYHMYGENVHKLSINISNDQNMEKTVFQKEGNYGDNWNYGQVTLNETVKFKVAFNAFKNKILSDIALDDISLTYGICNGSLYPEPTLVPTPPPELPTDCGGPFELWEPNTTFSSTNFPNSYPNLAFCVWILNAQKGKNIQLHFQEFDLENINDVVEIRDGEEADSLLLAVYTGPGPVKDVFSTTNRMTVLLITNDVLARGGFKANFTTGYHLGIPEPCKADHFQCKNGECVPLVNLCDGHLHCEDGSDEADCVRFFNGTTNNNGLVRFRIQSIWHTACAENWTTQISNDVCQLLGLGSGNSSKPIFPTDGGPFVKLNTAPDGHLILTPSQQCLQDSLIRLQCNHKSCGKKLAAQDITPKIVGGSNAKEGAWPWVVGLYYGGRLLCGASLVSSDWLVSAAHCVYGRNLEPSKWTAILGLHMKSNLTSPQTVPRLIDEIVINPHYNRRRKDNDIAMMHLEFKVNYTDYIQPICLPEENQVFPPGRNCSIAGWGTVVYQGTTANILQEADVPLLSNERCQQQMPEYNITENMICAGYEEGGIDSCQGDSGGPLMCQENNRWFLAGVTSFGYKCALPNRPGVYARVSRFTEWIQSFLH

Legend:
human trypsin = human trypsin (Homo sapiens, UniProt P07477); test: Measurement of trypsin inhibitory activity; settings: read-out: Trypsin inhibitory activity Ki, substrate Boc-Phe-Ser-Arg-AMC, Tris-HCl pH 8.0, Dixon plot, tested form: TFA
Experimental: Measurement of Trypsin Inhibitory Activity
Using a 96 well plate (#3915, Costar), a test compound (25 μL) was mixed with 20 μM fluorescence enzyme substrate (Boc-Phe-Ser-Arg-AMC, 50 μL) mixed with 200 mM Tris-HCl buffer (pH 8.0), and human trypsin (Sigma, 25 μL) was added. Using a fluorescence plate reader fmax (Molecular Devices, Inc.), the reaction rate was measured from the time-course changes at excitation wavelength 355 nm and fluorescence wavelength 460 nm. The Ki value was calculated from the concentration of the test compound, reciprocal of reaction rate, and Km value of the enzyme substrate, and by using Dixon plot.

[1] = molecular target: recombinant human enteropeptidase (Homo sapiens (Human), UniProt P98073); test: Measurement of enteropeptidase inhibitory activity; settings: read-out: Enteropeptidase inhibitory activity Ki, substrate Gly-Asp-Asp-Asp-Asp-Lys-β-Naphtylamide, Tris-HCl pH 8.0, Dixon plot, tested form: TFA
Experimental: Measurement of Enteropeptidase Inhibitory Activity
Using a 96 well plate (#3915, Costar), a test compound (25 μL), 400 mM Tris-HCl buffer (pH 8.0, 25 μL) and 0.5 mg/mL fluorescence enzyme substrate (Gly-Asp-Asp-Asp-Asp-Lys-β-Naphtylamide, 25 μL) were mixed, and recombinant human enteropeptidase (R&D Systems, Inc., 25 μL) was added. Using a fluorescence plate reader fmax (Molecular Devices, Inc.), the reaction rate was measured from the time-course changes at excitation wavelength 320 nm and fluorescence wavelength 405 nm. The Ki value was calculated from the concentration of the test compound, reciprocal of reaction rate, and Km value of the enzyme substrate, and by using Dixon plot.

Q: How did the Ki (human trypsin) turn out when `COC(=O)c1cc(NC(=O)C(C)(C)Cc2ccc(C(=O)Oc3ccc(C(=N)N)cc3F)s2)cc(C(=O)O)c1` was run?
A: The Ki was 1.02 nM.

Q: And the Ki [1]?
A: The Ki was 1.22 nM.
